Biological target: T1, Sialidase-4 (Homo sapiens, UniProt Q8WWR8)
T1 sequence (Q8WWR8 whole entry): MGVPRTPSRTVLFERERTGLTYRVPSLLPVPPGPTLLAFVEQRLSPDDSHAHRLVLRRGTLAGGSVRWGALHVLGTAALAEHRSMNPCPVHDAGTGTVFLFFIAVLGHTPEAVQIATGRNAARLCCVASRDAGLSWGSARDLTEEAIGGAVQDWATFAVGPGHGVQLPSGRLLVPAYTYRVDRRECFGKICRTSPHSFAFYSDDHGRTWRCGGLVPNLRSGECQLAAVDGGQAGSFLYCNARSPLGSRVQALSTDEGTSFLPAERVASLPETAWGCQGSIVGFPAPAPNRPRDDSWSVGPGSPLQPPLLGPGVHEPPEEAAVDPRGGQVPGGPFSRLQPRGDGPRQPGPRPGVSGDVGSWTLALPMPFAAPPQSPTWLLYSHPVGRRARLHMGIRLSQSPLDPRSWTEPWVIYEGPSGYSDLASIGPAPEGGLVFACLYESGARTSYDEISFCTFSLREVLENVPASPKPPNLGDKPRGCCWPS
Test: Inhibition of human NEU4 using GM3 as substrate preincubated for 30 mins before substrate addition measured after 1 hr by fluorescence plate reader analysis

CC(=O)N[C@H]1[C@H]([C@H](O)[C@H](O)CO)OC(C(=O)O)=C[C@@H]1O [NEU5AC2EN]
IC50: 260 µM
